From US6403602B1 (priority 1997, dated 2002)
pKi: −log10 of the molar value. Counter-ions that a name gives are not always drawn. Like-named read-outs stand apart in the source and are kept apart here.

Protein sequences, listed by entry. Tags and fused reporters are not part of them. Lines headed by an entry give the natural chain unless they say otherwise; changes in a name come on top. Residues count along the entry.
UniProt A0A286XTF2, 1-366: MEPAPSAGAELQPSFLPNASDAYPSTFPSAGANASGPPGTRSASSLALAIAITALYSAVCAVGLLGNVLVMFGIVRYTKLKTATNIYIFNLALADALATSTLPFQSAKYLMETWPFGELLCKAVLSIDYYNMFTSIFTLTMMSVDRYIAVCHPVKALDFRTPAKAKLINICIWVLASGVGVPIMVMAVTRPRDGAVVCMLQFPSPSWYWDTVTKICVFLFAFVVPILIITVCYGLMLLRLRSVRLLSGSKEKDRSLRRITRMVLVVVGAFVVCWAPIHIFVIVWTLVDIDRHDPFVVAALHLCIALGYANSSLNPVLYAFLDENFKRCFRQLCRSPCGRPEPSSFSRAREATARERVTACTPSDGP
UniProt P32300, whole entry: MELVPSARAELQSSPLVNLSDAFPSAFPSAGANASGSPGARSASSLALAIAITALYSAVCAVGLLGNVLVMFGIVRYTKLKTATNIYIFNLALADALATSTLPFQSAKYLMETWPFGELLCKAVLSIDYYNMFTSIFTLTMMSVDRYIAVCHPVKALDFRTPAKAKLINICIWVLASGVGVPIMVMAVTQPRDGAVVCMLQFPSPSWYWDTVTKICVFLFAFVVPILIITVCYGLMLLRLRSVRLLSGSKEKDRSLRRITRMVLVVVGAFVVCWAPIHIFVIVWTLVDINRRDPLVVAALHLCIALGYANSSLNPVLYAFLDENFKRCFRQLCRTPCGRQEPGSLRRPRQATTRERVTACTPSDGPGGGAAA

Experiments:
[1] = target: kappa3 receptors; conditions: read-out: Ki κ3 [^3H]NalBzoH
[2] = target: T1, delta receptors (Cavia porcellus, UniProt A0A286XTF2); test: biochemical; type: binding, guinea pig
T1 construct: The brains were then homogenized in 50 mM Tris HCl, buffer pH 7.7, using a Polytron; from tissue; host or cells: guinea pig brain homogenate (membrane pellet)

[3] = target: T2, δ opioid receptor (Mus musculus, UniProt P32300); test: Antagonist activity (pA2) at δ in the functional assays; type: cell-based
T2 construct: from tissue; host or cells: organ-bath tissue, probably mouse vas deferens

Structure (SMILES)	pKi [1]	pKi ([2]; read-out: Ki δ [^3H]Cl-DPDPE)	other results
C=CCN1CC[C@@]2(C)c3cc(O)ccc3CC1[C@@H]2C.Cl (single isomer, unassigned; (-)) [(−) SKF 10,047-HCl]	8.82		
O=C1/C(=C/c2ccccc2)C[C@@]2(O)[C@H]3Cc4ccc(O)c5c4[C@@]2(CCN3CC2CC2)[C@H]1O5 [BNTX]	8.46	8.38	
C=CCN1CC[C@]23c4c5ccc(O)c4O[C@H]2[C@@H](O)C=C[C@H]3[C@H]1C5 [Nalorphine]			Kb [3]: 162 nM
Oc1ccc2c3c1O[C@H]1c4[nH]c5ccccc5c4C[C@@]4(O)[C@@H](C2)N(CC2CC2)CC[C@]314 [Naltrindole]			pKi [2]: 10.05
COC(=O)/C=C/C(=O)N[C@@H]1CC[C@@]2(O)[C@H]3Cc4ccc(O)c5c4[C@@]2(CCN3CC2CC2)[C@H]1O5 [β-FNA-HCl]		8.11	
